## Measured affinities in a library of Ab-14 light chain variants

All variants were tested on one target, the spike HR2 peptide PDVDLGDISGINAS (SARS-CoV-2).

The variants keep the heavy chain, the linker and the frameworks of Ab-14 (scFv order VH, a (GGGGS)3 linker, VL).
VH: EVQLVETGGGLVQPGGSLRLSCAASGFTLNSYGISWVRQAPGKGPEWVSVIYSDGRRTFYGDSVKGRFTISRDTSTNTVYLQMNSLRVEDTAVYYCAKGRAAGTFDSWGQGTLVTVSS
VL: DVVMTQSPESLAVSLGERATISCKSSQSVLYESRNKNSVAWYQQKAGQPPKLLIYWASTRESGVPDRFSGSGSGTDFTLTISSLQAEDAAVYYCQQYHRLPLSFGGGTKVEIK

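The starting antibody came from a phage panning campaign against this peptide. Variants in AAYL50 differ from the parent at up to three CDR positions; double and triple changes were sampled at random. In AlphaSeq, yeast of one mating type display the scFv and yeast of the other type display the target. Binding brings cells together so that they mate, and sequencing counts the barcode pairs among the diploids. A regression on co-assayed BCL2-family reference pairs converts the normalised counts of each replicate to an apparent Kd. Each pool was mated in three replicate cultures.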

Variants are written as CDR1, CDR2 and CDR3 of the light chain (limits as in the source). Parent: KSSQSVLYESRNKNSVA, WASTRES, QQYHRLPLS. The read-out is the apparent dissociation constant on a log10 scale (nM): the lower, the stronger. "nd" marks a missing value. The strain was present, yet no cells mated with the target were sequenced in that replicate, which points to weak or no binding. For reference, the parent read 0.65 as the reference entry and 1.68 as a member of this library. Nonspecific signal, from three strains lacking the peptide, appeared in 18% of pairings of library AAYL50, centred on 4.19 (5% of these signals below 2.99); values are not corrected for it. Also given: how often the same scFv was detected with the empty control strains, with their mean in brackets.

CDR-L1,CDR-L2,CDR-L3,"log10 Kd, replicates",control signals
KSSQSVLYESRFPNSVA,WISTRES,QQYHRLPLS,1.57 nd nd,0/9
KSSQSVLYESRNKTSVA,WPSTREV,QQYHRLPLS,nd nd 4.50,1/9 (2.95)
KSSQSVLYESRNKNSVA,WASWRFS,QQYSRLPLS,nd nd nd,0/9
KSSCSVLYMSRNKNSVA,WASNRES,QQYHRLPLS,5.03 nd nd,2/9 (4.05)
KSSQSQLYEMRNKNSVA,WASTRLS,QQYHRLPLS,1.19 1.33 1.36,5/9 (4.54)
KSSQSVLYESRNKNSVA,AASTRVS,QQFHRLPLS,0.60 0.73 0.75,4/9 (5.40)
KSSQSVLYESRNKISVA,WASTRES,QQYLRFPLS,4.65 nd nd,0/9
KSSQSVDYESRNKNSVA,WASQRES,QQYHRLFLS,nd nd nd,0/9
KSSQSLLYESRRKNWVA,WASTRES,QQYHRLPLS,nd nd 2.97,1/9 (3.02)
KLSVSVLYESRNKNSCA,WASTRES,QQYHRLPLS,1.85 2.01 2.66,0/9
KSSQSVLYEYRNKNSVA,WASKRES,QQYHRLPLG,2.15 1.70 2.29,4/9 (4.21)
KSSQSVLYESRNKISVA,WASIRES,QQLHRLPLS,0.39 0.61 0.52,2/9 (3.62)
KSSQSVLYESRNKNSVA,WACTRES,MQFHRLPLS,3.79 2.57 3.35,2/9 (3.63)
KSSQSVLYESRNKPSVA,WASTLES,QQYHRLPLS,2.79 2.63 3.13,1/9 (3.41)
KSSQSVLYESRNKRSVE,WASERES,QQYHRLPLS,nd nd nd,3/9 (4.66)
KSSQSVLYESRNKNSVA,WASTRES,HQYHRLPLS,nd nd nd,2/9 (5.16)
KSSQSVLYESRNKNSVA,WASTGSS,QQYHRFPLS,3.36 nd nd,0/9
KSSQSVLYESPNKNSVA,WASDRES,QQYHCLPLS,nd 3.34 nd,1/9 (3.06)
KSSKYVLYESRNKNSVC,WASTRES,QQYHRLPLS,nd nd nd,0/9
KSSQSVLYESSPKNSVA,WASTRES,QQYHRKPLS,nd nd nd,0/9
RSSQSVLYESRNKNSVA,WASTRES,QQYHNLPLS,0.70 1.07 0.92,1/9 (3.60)
KSSQSVLYESRNYNSVA,WASTRES,QQVHNLPLS,nd 4.44 nd,1/9 (4.19)
KSSQLVLYESRNKNSGW,WASTRES,QQYHRLPLS,1.90 1.66 2.13,1/9 (3.36)
KSSQSVWYESRQGNSVA,WASTRES,QQYHRLPLS,0.65 1.08 0.94,2/9 (3.40)
KSSQSVLTESRNKNSVA,WASTRES,QQYVRLPAS,3.86 3.16 nd,1/9 (4.13)
KRSQSVLYESENKNSVA,WASTRES,QQYDRLPLS,1.15 1.31 1.39,5/9 (4.58)
KASQSVLYESRNKNSVA,WAWTRES,QQIHRLPLS,3.70 3.72 nd,0/9
KSSYSTLYESRNKNSTA,WASTRES,QQYHRLPLS,nd nd nd,0/9
KESQSVLYESRNKNSVA,PASLRES,QQYHRLPLS,nd nd nd,1/9 (2.73)
KSSQSVLYESRNKISVA,WASTRYS,QQYHRLPLS,2.70 2.62 2.70,0/9
KSSQSVLYESRNKNSVA,WASIRES,QQYHRLWHS,1.03 1.16 1.24,5/9 (4.77)
KSSQSVLDESRNKNSVA,WQSTRES,QQYHRLPES,nd nd nd,4/9 (4.45)
KSSQSVLYESRNKNSVA,WASTRES,QQYHRLPQT,nd nd nd,0/9
KSSQSVLYESRNKNSVK,WASLRSS,QQYHRLPLS,nd 5.23 4.10,3/9 (3.61)
KSSQSSLYESRNKNSVA,WASTRKS,QQYHRLPMS,3.12 2.63 2.98,1/9 (3.67)
KYSQGVLYESRNKNSVA,WASTRES,QQYLRLPLS,0.66 0.99 0.80,5/9 (4.09)
KSSQSVWYSSRNKNSVA,WASTRES,QQYHRLGLS,2.14 1.71 1.71,1/9 (3.67)
KSYQSVLYKSANKNSVA,WASTRES,QQYHRLPLS,1.96 2.12 2.54,2/9 (3.89)
KSSQRVVYESRNKNSVA,WASTRES,EQYHRLPLS,2.85 2.67 nd,1/9 (4.07)
KSSQSVLYESRNKNDVA,WASTRES,QQYHRLPLS,2.09 1.94 2.34,3/9 (4.45)
KSSQSVQYESRNKNSVA,WYSTRSS,QQYHRLPLS,nd nd 5.74,2/9 (3.94)
KSSQSVLYESRNKNSVK,WASTRES,QQYHRLPLS,5.20 nd nd,3/9 (4.30)
KSSQHVLYESRNKNSVA,WASTREP,QQYHRLPGS,4.30 3.76 3.69,3/9 (4.47)
KSSQSVLYESNNKNSVA,IASYRES,QQYHRLPLS,nd 4.52 nd,1/9 (3.98)
KSSQSVLYESRNKQSVA,WASTREN,QQYHRNPLS,nd nd nd,1/9 (3.98)
KSSQSVLYESYNKNSVA,WASTRES,QQYTNLPLS,2.51 2.29 3.30,2/9 (3.99)
KSSQSVLYESRNKNSVA,WASTHES,QMYKRLPLS,nd 3.15 nd,0/9

Extract of 6 entries:

CDR-L1,CDR-L2,CDR-L3,"log10 Kd, replicates",control signals
KSSQSVLYESRNKISVA,WASTRYS,QQYHRLPLS,2.70 2.62 2.70,0/9
KSSQSVLYESRNKNSVA,WASIRES,QQYHRLWHS,1.03 1.16 1.24,5/9 (4.77)
KSSQSVLYESRNKQSVA,WASTREN,QQYHRNPLS,nd nd nd,1/9 (3.98)
KSSQSVLYESNNKNSVA,IASYRES,QQYHRLPLS,nd 4.52 nd,1/9 (3.98)
KSSQSVLYESRNKNSVA,WASTRES,HQYHRLPLS,nd nd nd,2/9 (5.16)
KSSQSVLYESYNKNSVA,WASTRES,QQYTNLPLS,2.51 2.29 3.30,2/9 (3.99)

Reference: Engelhart et al. 2022, doi:10.1038/s41597-022-01779-4. File: FLAb, binding data.